## Yeast mating assay 1: variants of the scFv Ab-14

Binding partner: SARS-CoV-2 spike HR2 peptide, sequence PDVDLGDISGINAS.

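Library AAYL49 holds single substitutions and randomly drawn double and triple substitutions in the CDRs. The assay is AlphaSeq: two haploid yeast populations carry antibody and antigen on their surface. After mating in shaken culture at 30 °C for 16 h, diploids were selected and their barcode pairs sequenced. Each replicate has its own calibration line, from reference interactions of the BCL2 family. There are three technical replicates.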

Each scFv is VH, a 15-residue (Gly4Ser)3 linker, VL, as in the parent Ab-14, and differs from it in the CDRs of the heavy chain only.
VH: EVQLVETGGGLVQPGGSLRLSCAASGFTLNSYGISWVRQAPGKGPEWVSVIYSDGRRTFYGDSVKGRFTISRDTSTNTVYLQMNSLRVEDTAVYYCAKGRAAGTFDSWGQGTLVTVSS
VL: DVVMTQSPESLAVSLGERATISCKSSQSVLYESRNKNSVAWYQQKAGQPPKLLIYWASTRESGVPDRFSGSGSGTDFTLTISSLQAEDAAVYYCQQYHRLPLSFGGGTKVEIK

Sequences are complete VH domains. Kd is apparent (estimated from mating counts) and averaged on the log scale over replicates with a signal. Smaller is tighter. An entry "nd" has no value in the source: the pair was not observed among the diploids in any replicate. This suggests poor binding but is not conclusive. Background: pairings of library AAYL49 with three empty control strains gave a value in 15% of cases (median 11 µM, 5th percentile 680 nM). Values in that range, when seen in few replicates, are hard to tell from nonspecific mating. For reference, the parent read 4.4 nM as the reference entry and 13 µM (one replicate of three) as a member of this library.

VH,Kd (apparent),seen in
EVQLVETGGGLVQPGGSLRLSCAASGWYLNSYGISWVRQAPGKGPEWVSVIASDGRRTFYGDSVKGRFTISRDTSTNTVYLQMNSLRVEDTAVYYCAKGRAAGTFDSWGQGTLVTVSS,7.7 µM,2/3
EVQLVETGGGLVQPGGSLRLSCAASGFTLNSYGISWVRQAPGKGPEWVSVIAMDGRRTFYGDSVKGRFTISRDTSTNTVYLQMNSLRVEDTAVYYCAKGRSAGTFDSWGQGTLVTVSS,340 µM,1/3
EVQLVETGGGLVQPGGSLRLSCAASGFWLNSYGIPWVRQAPGKGPEWVSVIYSDGRRTFYGDSVKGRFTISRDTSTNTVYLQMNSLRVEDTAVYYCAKGRAAGTFFSWGQGTLVTVSS,nd,0/3
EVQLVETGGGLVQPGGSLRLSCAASGFTLNSYGISWVRQAPGKGPEWVSVINSDGRRTFYGDKVKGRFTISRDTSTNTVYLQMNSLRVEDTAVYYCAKGRAAGDFDSWGQGTLVTVSS,1.0 µM,1/3
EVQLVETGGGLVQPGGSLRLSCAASGFLPNSYGISWVRQAPGKGPEWVSPIYSDGRRTFYGDSVKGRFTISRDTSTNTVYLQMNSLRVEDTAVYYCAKGRAAGTFDSWGQGTLVTVSS,nd,0/3
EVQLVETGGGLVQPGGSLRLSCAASTFTLNSKGILWVRQAPGKGPEWVSVIYSDGRRTFYGDSVKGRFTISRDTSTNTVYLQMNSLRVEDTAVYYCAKGRAAGTFDSWGQGTLVTVSS,20 µM,2/3
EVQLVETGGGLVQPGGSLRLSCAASGFTLNSYGISWVRQAPGKGPEWVSVIYSDGYRTFYGDSVKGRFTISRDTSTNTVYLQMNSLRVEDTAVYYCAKSRAANTFDSWGQGTLVTVSS,16 nM,3/3
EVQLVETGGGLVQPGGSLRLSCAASGFTLESYGISWVRQAPGKGPEWVSVIYSDGRRTVYGDSVKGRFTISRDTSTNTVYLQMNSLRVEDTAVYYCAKGRDAGTFDSWGQGTLVTVSS,5.6 nM,3/3

Second part, the sequence after the result:

Kd (apparent),seen in,VH
50 µM,2/3,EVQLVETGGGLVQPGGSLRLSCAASGFTLNSYGHSWVRQAPGKGPEWVSVWYPDGRRTFYGDSVKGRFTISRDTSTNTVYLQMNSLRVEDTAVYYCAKGRAAGTFDSWGQGTLVTVSS
nd,0/3,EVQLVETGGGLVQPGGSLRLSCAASGFTLNSYGISWVRQAPGKGPEWVSYIYSDGRRTFYGDSVGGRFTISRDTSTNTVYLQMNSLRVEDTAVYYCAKGRAAGTNDSWGQGTLVTVSS
nd,0/3,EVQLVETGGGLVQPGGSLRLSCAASGFTLNSYGIRWVRQAPGKGPEWVSVIYSDGRCTFYGDSVKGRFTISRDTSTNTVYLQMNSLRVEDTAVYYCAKGRAVGTFDSWGQGTLVTVSS
12 µM,3/3,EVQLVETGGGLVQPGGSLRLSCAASGFNLNSYGYSWVRQAPGKGPEWVSVIYSDGRRTFYGDSVQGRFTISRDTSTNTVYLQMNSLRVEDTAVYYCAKGRAAGTFDSWGQGTLVTVSS
nd,0/3,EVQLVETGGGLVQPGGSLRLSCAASGFTLNSYGISWVRQAPGKGPEWVSVIYSDGRRTPYGDSVEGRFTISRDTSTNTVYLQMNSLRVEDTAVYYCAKGRADGTFDSWGQGTLVTVSS
nd,0/3,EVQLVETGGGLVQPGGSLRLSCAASQFTLYSYGISWVRQAPGKGPEWVSVIYSDGRETFYGDSVKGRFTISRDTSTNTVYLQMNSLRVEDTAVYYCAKGRAAGTFDSWGQGTLVTVSS
44 nM,3/3,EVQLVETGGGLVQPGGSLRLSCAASGFTLVRYGISWVRQAPGKGPEWVSVIYADGRRTFYGDSVKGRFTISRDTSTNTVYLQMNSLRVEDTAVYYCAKGRAAGTFDSWGQGTLVTVSS
16 µM,3/3,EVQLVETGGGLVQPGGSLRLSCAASGFTLCSYQISWVRQAPGKGPEWVSVIYSDGRRTFYGDKVKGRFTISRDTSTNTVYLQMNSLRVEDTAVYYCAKGRAAGTFDSWGQGTLVTVSS

Again, the first 3 entries without any signal:

| VH | Kd (apparent) | seen in |
|---|---|---|
| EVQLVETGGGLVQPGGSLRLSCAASGFWLNSYGIPWVRQAPGKGPEWVSVIYSDGRRTFYGDSVKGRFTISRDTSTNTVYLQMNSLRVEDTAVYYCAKGRAAGTFFSWGQGTLVTVSS | nd | 0/3 |
| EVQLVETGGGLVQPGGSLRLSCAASGFLPNSYGISWVRQAPGKGPEWVSPIYSDGRRTFYGDSVKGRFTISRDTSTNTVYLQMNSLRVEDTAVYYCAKGRAAGTFDSWGQGTLVTVSS | nd | 0/3 |
| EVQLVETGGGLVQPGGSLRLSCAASGFTLNSYGISWVRQAPGKGPEWVSYIYSDGRRTFYGDSVGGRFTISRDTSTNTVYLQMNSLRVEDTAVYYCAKGRAAGTNDSWGQGTLVTVSS | nd | 0/3 |

Source: Engelhart et al. 2022 (doi:10.1038/s41597-022-01779-4), MIT Lincoln Laboratory and A-Alpha Bio; data file from the FLAb repository.